For this data set the following is noted: mouse, microsomes, 0.5 h.

With `COCCOc1c(C(=O)Nc2ccc(COC)cc2)c2c(N)ncnc2n1C1(C)CC1`, the “Remaining (%)” value is given as 68%. To `COCc1ccc(NC(=O)c2c(C#N)n(C3(C)CC3)c3ncnc(N)c23)cc1` belongs 76%.
